Reference: patent EP4544907B1, “CLEANING WET WIPE” (dated 2026)

Experiment: dissolution of xanthoxylin during chemical solution adjustment
Experimental: Note that the present inventors confirmed during an experiment of chemical solution adjustment that xanthoxylin was dissolved in a cleaning chemical solution for wiping off sebum and oil contaminations although xanthoxylin was also hardly soluble in water.
Also, the present inventors discovered that it was possible to dissolve xanthoxylin in a water-based chemical solution by using ethanol and a surfactant together since xanthoxylin had compatibility with ethanol and a surfactant contained in the cleaning chemical solution and achieved the present invention.

dissolution in cleaning chemical solution (cleaning chemical solution for wiping off sebum and oil contaminations, containing ethanol and a surfactant): dissolved
solubility in water (water): hardly soluble in water
SMILES: COc1cc(O)c(C(C)=O)c(OC)c1
